The values below are quoted from earlier work in patent US7988998B2, “Sustained-release tramadol formulations with 24-hour efficacy” (Labopharm Inc., priority 2002, dated 2011).

Sequences of proteins named here, by UniProt entry; tags and fusion partners are left off.
UniProt P35372, whole entry, species assumed: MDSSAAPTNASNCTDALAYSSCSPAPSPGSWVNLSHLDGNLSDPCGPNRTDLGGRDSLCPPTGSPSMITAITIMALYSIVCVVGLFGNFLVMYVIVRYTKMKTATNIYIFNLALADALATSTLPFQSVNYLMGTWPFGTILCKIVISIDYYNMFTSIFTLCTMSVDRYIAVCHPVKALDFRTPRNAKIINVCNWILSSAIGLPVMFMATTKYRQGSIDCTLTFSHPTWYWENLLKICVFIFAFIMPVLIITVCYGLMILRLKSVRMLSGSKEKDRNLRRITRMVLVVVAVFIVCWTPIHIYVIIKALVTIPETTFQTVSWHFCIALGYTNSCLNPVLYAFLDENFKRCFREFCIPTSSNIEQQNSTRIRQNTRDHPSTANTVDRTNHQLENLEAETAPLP

The series concerns the target μ-opioid receptor (Homo sapiens, UniProt P35372). To be noted: higher affinity than racemic tramadol.

Each structure is given as a SMILES string.

In the case of `CN(C)C[C@H]1CCCC[C@]1(O)c1cccc(O)c1` [mono-O-desmethyltramadol (M1), mono-O-desmethyltramadol], the “affinity for the μ-opioid receptor relative to racemic tramadol” value was roughly 200 fold.
